# Measurements reported in patent US8034936B2, “Spirocyclic cyclohexane compounds useful to treat substance dependency” (Gruenenthal GmbH, priority 2005, dated 2011).
# Amino acid sequences for entries named in this document (tags omitted). A change or cut given only in a name is not applied to a line headed by its entry.
# UniProt P35372, whole entry, looked up: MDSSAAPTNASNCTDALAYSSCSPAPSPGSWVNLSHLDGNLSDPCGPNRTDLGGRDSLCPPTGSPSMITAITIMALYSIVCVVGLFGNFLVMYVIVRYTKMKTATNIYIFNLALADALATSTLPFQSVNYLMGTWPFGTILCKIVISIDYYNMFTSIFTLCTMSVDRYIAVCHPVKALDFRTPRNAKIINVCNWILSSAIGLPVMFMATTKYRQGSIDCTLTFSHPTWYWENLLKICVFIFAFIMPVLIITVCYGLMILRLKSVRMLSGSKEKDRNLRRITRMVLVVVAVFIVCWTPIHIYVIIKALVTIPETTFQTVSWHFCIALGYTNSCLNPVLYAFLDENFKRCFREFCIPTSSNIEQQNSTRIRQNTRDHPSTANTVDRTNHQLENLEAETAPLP
# UniProt P41146: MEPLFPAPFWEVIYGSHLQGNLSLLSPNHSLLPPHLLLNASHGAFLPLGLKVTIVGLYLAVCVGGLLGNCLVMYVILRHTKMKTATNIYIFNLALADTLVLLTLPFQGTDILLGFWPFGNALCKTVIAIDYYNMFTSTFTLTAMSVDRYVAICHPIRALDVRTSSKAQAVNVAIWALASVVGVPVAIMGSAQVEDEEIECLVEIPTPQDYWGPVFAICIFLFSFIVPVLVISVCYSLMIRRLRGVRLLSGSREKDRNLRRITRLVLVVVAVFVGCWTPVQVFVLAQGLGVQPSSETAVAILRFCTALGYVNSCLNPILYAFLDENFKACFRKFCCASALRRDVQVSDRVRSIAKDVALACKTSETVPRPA
# Where two headings read alike, the source gives them in different places.
# Assays:
# [1] = target: human μ-opiate receptor (Homo sapiens, UniProt P35372); experiment: μ-opiate receptor binding, [3H]-naloxone displacement, CHO-K1 membrane preparation
# [2] = target: ORL1 receptor (Homo sapiens, UniProt P41146); experiment: ORL1 receptor binding assay with 3H-nociceptin/orphanin FQ, membranes of recombinant CHO-ORL1 cells
# [3] = read-out: ORL1 human Ki, No. 1-49
Compound,"Ki ([1]; read-out: μ, Ki, No. 50-145) [nM]",ORL1/μ ratio ([2]; No. 50-145),"Ki ([2]; read-out: ORL1, Ki, No. 50-145) [nM]",also measured
CN(C)C1(c2cccc(F)c2)CCC2(CC1)c1[nH]c3ccccc3c1CCN2C(=O)c1cc(F)cc(C(F)(F)F)c1 (stereo not shown),3.3,1.00,3.3,
CN(C)C1(Cc2ccccc2)CCC2(CC1)c1[nH]c3ccccc3c1CCN2C(=O)c1ccc(C(F)(F)F)cc1 (stereo not shown),21,1.91,11,
CN(C)C1(c2cccc(F)c2)CCC2(CC1)c1[nH]c3ccccc3c1CCN2C(=O)c1ccc(Cl)cc1Cl (stereo not shown),19,0.86,22,
CN(C)C1(Cc2ccccc2)CCC2(CC1)c1[nH]c3ccccc3c1CCN2C(=O)c1cc(F)c(F)c(F)c1F (stereo not shown),15,0.50,30,
Cc1ccc2[nH]c3c(c2c1)CCNC31CCC(c2ccccc2)(N(C)C)CC1 (stereo not shown),,,,"Ki ([1]; read-out: μ Ki, No. 1-49): 20 nM; ORL1/μ Ratio calculated as Ki(μ)/Ki(ORL1) ([2]; No. 1-49): 0.47; Ki [2, 3]: 30 nM"
CN(C)C1(Cc2ccccc2)CCC2(CC1)c1[nH]c3ccccc3c1CCN2C(=O)c1cccc([N+](=O)[O-])c1 (stereo not shown),8.8,0.52,17,
CN(C)C1(c2ccc(F)cc2)CCC2(CC1)OCCc1c2[nH]c2ccccc12 (stereo not shown),,,,"Ki ([1]; read-out: μ Ki, No. 1-49): 10 nM; ORL1/μ Ratio calculated as Ki(μ)/Ki(ORL1) ([2]; No. 1-49): 3.00; Ki [2, 3]: 3.2 nM"
CN(C)C1(c2ccccc2)CCC2(CC1)OCCc1c2[nH]c2ccc(Br)cc12 (stereo not shown),,,,"Ki ([1]; read-out: μ Ki, No. 1-49): 20 nM; ORL1/μ Ratio calculated as Ki(μ)/Ki(ORL1) ([2]; No. 1-49): 0.37; Ki [2, 3]: 50 nM"
CC1Cc2c([nH]c3ccc(Br)cc23)C2(CCC(c3ccccc3)(N(C)C)CC2)O1 (stereo not shown),,,,"Ki ([1]; read-out: μ Ki, No. 1-49): 10 nM; ORL1/μ Ratio calculated as Ki(μ)/Ki(ORL1) ([2]; No. 1-49): 0.45; Ki [2, 3]: 20 nM"
CN(C)C1(c2ccccc2)CCC2(CC1)c1[nH]c3ccccc3c1CCN2C(=O)c1cccs1 (stereo not shown),35,1.09,32,
CN(C)C1(c2ccc(F)cc2)CCC2(CC1)NCCc1c2[nH]c2ccccc12 (stereo not shown),,,,"Ki ([1]; read-out: μ Ki, No. 1-49): 2.9 nM; ORL1/μ Ratio calculated as Ki(μ)/Ki(ORL1) ([2]; No. 1-49): 1.12; Ki [2, 3]: 2.6 nM"
CN(C)C1(c2cccc(F)c2)CCC2(CC1)c1[nH]c3ccccc3c1CCN2C(=O)c1cc(Cl)cc(Cl)c1 (stereo not shown),16,0.53,30,
CN(C)C1(c2ccccc2)CCC2(CC1)OC1CCCCC1c1c2[nH]c2ccccc12 (stereo not shown),,,,"Ki ([1]; read-out: μ Ki, No. 1-49): 70 nM; ORL1/μ Ratio calculated as Ki(μ)/Ki(ORL1) ([2]; No. 1-49): 0.62; Ki [2, 3]: 110 nM"
CN(C)C1(c2cccc(F)c2)CCC2(CC1)c1[nH]c3ccccc3c1CCN2C(=O)c1ccc([N+](=O)[O-])cc1 (stereo not shown),6.2,0.97,6.4,
CN(C)C1(c2cccc(F)c2)CCC2(CC1)c1[nH]c3ccccc3c1CCN2C(=O)c1cccc(F)c1F (stereo not shown),2.5,1.79,1.4,
COC(=O)CCC(=O)N1CCc2c([nH]c3ccccc23)C12CCC(Cc1ccccc1)(N(C)C)CC2 (stereo not shown),69,1.05,66,
CN(C)C1(c2ccccc2)CCC2(CC1)c1[nH]c3ccccc3c1CCN2C(=O)c1cc(F)cc(F)c1 (stereo not shown),1.9,0.95,2,
CN(C)C1(Cc2ccccc2)CCC2(CC1)c1[nH]c3ccccc3c1CCN2C(=O)c1ccc(C(C)(C)C)cc1 (stereo not shown),59,0.54,110,
CNC1(c2ccccc2)CCC2(CC1)OCCc1c2[nH]c2ccc(OC)cc12 (stereo not shown),,,,"Ki ([1]; read-out: μ-opiate-receptor Ki, printed in the % inhibition column): 2.4 nM; ORL1/μ ratio calculated as Ki(μ)/Ki(ORL1) (only for measured Ki values) ([2]; comparison compounds): 0.03; Ki ([2]; read-out: ORL-1 Ki, printed in the % inhibition column): 69 nM"
CN(C)C1(c2cccc(F)c2)CCC2(CC1)c1[nH]c3ccccc3c1CCN2C(=O)C1CCCCC1 (stereo not shown),65,2.60,25,
CN(C)C1(c2cccc(F)c2)CCC2(CC1)c1[nH]c3ccccc3c1CCN2C(=O)C1CCCC1 (stereo not shown),32,4.78,6.7,
CN(C)C1(c2cccc(F)c2)CCC2(CC1)c1[nH]c3ccccc3c1CCN2C(=O)c1ccc(F)cc1F (stereo not shown),17,1.06,16,
CN(C)C1(c2ccccc2)CCC2(CC1)c1[nH]c3ccccc3c1CCN2C(=O)C1CCCC1 (stereo not shown),29,2.90,10,
CN(C)C1(c2cccc(F)c2)CCC2(CC1)c1[nH]c3ccccc3c1CCN2C(=O)c1ccccc1 (stereo not shown),8.5,2.50,3.4,
CN(C)C1(c2cccc(F)c2)CCC2(CC1)c1[nH]c3ccccc3c1CCN2C(=O)Cc1cccs1 (stereo not shown),36,2.12,17,
CN(C)C1(c2ccccc2)CCC2(CC1)OCCc1c2[nH]c2cc(Cl)cc(Cl)c12 (stereo not shown),,,,"μ-opiate-receptor [1 μM], % inhibition [1]: 97%; ORL-1 [1 μM], % inhibition [2]: 32%"
CN(C)C1(Cc2ccccc2)CCC2(CC1)c1[nH]c3ccccc3c1CCN2C(=O)c1cc(F)ccc1F (stereo not shown),,,,"μ-opiate-receptor [1 μM], % inhibition [1]: 82%; ORL-1 [1 μM], % inhibition [2]: 41%"
CN(C)C1(Cc2ccccc2)CCC2(CC1)c1[nH]c3ccccc3c1CCN2C(=O)/C=C/c1ccccc1 (stereo not shown),37,1.54,24,
